{"source": "patent US6703362B1", "about": "“Random peptides that bind to gastro-intestinal tract (GIT) transport receptors and related methods” (Cytogen Corporation, priority 1997, dated 2004)", "assay": "Preselected phage libraries, rat closed loop: uptake into portal and systemic circulation (oligonucleotide hybridization autoradiograph)", "format": "in vivo", "conditions": "for transport from the closed loop model into the portal circulation: hSI pool of phages; for transport from the GIT closed loop model into the portal circulation: D2H pool of phages", "key": {"[1]": {"conditions": "HPT1 pool of phages, PAX2 at 4x concentration"}}, "data": [{"sequence": "RGAADQRRGWSENLGLPRVGWDAIAHNSYTFTSRRPRPP [Phage SNi38]", "values": [{"measurement": "transport from the closed loop model into the portal circulation", "value": "transported"}]}, {"sequence": "RGSTGTAGGERSGVLNLHTRDNASGSGFKPWYPSNRGHK [Peptide 5PAX5]", "values": [{"measurement": "found in the portal circulation", "setting": "hPEPT1 pool of phages", "value": "not found in the portal blood"}, {"measurement": "found in the systemic circulation", "setting": "hPEPT1 pool of phages", "value": "found in the systemic circulation"}]}, {"sequence": "RTTTAKGCLLGSFGVLSGCSFTPTSPPPHLGYPPHSVN [Phage SNiAX6]", "values": [{"measurement": "transport from the closed loop model into the portal circulation", "value": "not transported"}]}, {"sequence": "RVGQCTDSDVRRPWARSCAHQGCGAGTRNSHGCITRPLRQASAH [Phage SNi10]", "values": [{"measurement": "transport from the closed loop model into the portal circulation", "value": "transported"}]}, {"sequence": "RYKHDIGCDAGVDKKSSSVRGGCGAHSSPPRAGRGPRGTMVSRL [DCX8]", "values": [{"measurement": "transport from the GIT closed loop model into the portal circulation", "value": "transported"}]}, {"sequence": "SARDSGPAEDGSRAVRLNGVENANTRKSSRSNPRGRRHP [Peptide P31]", "values": [{"measurement": "found in the portal circulation", "setting": "hPEPT1 pool of phages", "value": "found in the portal circulation"}, {"measurement": "found in the systemic circulation", "setting": "hPEPT1 pool of phages", "value": "found in the systemic circulation"}]}, {"sequence": "SDHALGTNLRSDNAKEPGDYNCCGNGNSTGRKVFNRRRPSAIPT [HAX42]", "values": [{"measurement": "found in the systemic circulation", "setting": "HPT1 pool of phages", "value": "found in the portal and systemic circulation"}, {"measurement": "found in the portal circulation", "setting": "[1]", "value": "found in the portal and systemic circulation"}]}, {"sequence": "SDSDGDHYGLRGGVRCSLRDRGCGLALSTVHAGPPSFYPKLSSP [Phage SNiAX2]", "values": [{"measurement": "transport from the closed loop model into the portal circulation", "value": "not transported"}]}, {"sequence": "SGGEVSSWGRVNDLCARVSWTGCGTARSARTDNKGFLPKHSSLR [Phage SNi45]", "values": [{"measurement": "transport from the closed loop model into the portal circulation", "value": "not transported"}]}, {"sequence": "SHSGGMNRAYGDVFRELRDRWNATSHHTRPTPQLPRGPN [Phage SNi28]", "values": [{"measurement": "transport from the closed loop model into the portal circulation", "value": "not transported"}]}, {"sequence": "SPCGGSWGRFMQGGLFGGRTDGCGAHRNRTSASLEPPSSDY [Phage SNi34]", "values": [{"measurement": "transport from the closed loop model into the portal circulation", "value": "transported"}]}, {"sequence": "SPKLSSVGVMTKVTELPTEGPNAISIPISATLGPRNPLR [Phage SNiAX8]", "values": [{"measurement": "transport from the closed loop model into the portal circulation", "value": "not transported"}]}, {"sequence": "SQGSKQCMQYRTGRLTVGSEYGCGMNPARHATPAYPARLLPRYR [DCX11]", "values": [{"measurement": "transport from the GIT closed loop model into the portal circulation", "value": "preferably transported"}]}, {"sequence": "STPPSREAYSRPYSVDSDSDTNAKHSSHNRRLRTRSRPN [PAX2]", "values": [{"measurement": "found in the systemic circulation", "setting": "HPT1 pool of phages", "value": "found in the portal and systemic circulation"}, {"measurement": "found in the portal circulation", "setting": "[1]", "value": "found in the portal and systemic circulation"}, {"measurement": "found in the portal circulation", "setting": "hPEPT1 pool of phages", "value": "found in the portal circulation"}]}]}
